Rango dissoc inh – qHTS Assay for Inhibitors of RanGTP induced Rango (Ran-regulated importin-beta cargo) - Importin beta complex dissociation; AID 540253, 2011; Snurportin-1 (Homo sapiens) + GTP-binding nuclear protein Ran (Homo sapiens) + Importin …; Potency, µM (highest dose often 46.1 µM); 340,000 tested, 0.071% active; Biochemical FRET Rango-importin beta, RanGTP-induced dissociation; also: nearly all actives have a fitted effect of over 45% in size
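Two FRET readings bracket the reaction: one 5 min after compound meets Rango–importin beta, another 45 min after RanGTP-RCC1 (0.6 uM Ran, 0.2 uM RCC1, 2 mM GTP) is added. Only the second defines inhibition.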
pAkt inh – HTS Assay for Inhibitors of Akt Phophorylation: Primary Screen; Neuro2A IGF-stimulated pAkt S473 HTRF, 20 min; hits give low values; activity change, % for hits at 50 µM; 360,000 tested, 0.32% active; AID 651550, 2012; in the data active = activity change below about -80%; inconclusive = mostly about -51% to -80%
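Neuro2A cells (4,500/well, DMEM with 0.5% FBS) were treated with compound at a single 50 µM final concentration, stimulated with 6 nM IGF for 20 min at 37 °C, and lysed. Phospho-Akt Ser473 was read by HTRF as 665/615 ratio ×10^4.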
Rango complex inh – qHTS Assay for Inhibitors of Rango (Ran-regulated importin-beta cargo) - Importin beta complex formation; Importin subunit beta-1 (Homo sapiens), Q14974; Rango CFP/YFP FRET sensor + importin beta, 45 min; Potency, µM (doses to about 92.2 µM); 340,000 tested, 0.031% active; AID 540263, 2011; also: nearly all actives have a fitted effect of over 15% in size
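FRET biosensor (snurportin 1 IBB flanked by EYFP and cerulean), 50 nM, with compound 5 min, then 0.125 microM importin beta in PBS, 1 mM DTT, 0.02% Tween-20, 0.1% BSA. CFP/YFP ratio read after 45 min at room temperature; pre-read flags interference.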
TSHR antagonist – Antagonists of the Thyroid Stimulating Hormone Receptor: HTS campaign; AID 504810, 2011; 330,000 tested, 0.2% active; TSHR-expressing cells, TSH-stimulated cAMP HTRF, 2 h; hits give low values; activity change, negative = inhibition, % at 11.5 µM;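 active = activity change below a set negative limit, meaning inhibition stronger than a set level, cut at about -70% in these data; inconclusive = activity change between two set negative limits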
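TSHR-expressing cells were treated with compounds, then stimulated with TSH at EC80 (4nM final) for 2 hours at 37 deg C. Cellular cAMP was measured by HTRF competition between lysate cAMP and cAMP-d2 for a cryptate-labelled anti-cAMP antibody.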
p53 reactivator – qHTS assay for re-activators of p53 using a Luc reporter; Potency, µM (series often up to 92.2 µM), hits mostly activators; AID 504706, 2011; 320,000 tested, 0.063% active; H1299 p53-A138V BP100-luciferase reporter, luminescence, 24 h; active = well fitted activation curve with a large enough effect; inconclusive = small, poorly fitted or top-dose-only effect; inactive = no such curve, though single readings can be large or run the other way; also: nearly all actives have a fitted effect of over 45% in size
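H1299 (p53-null), stable ts p53-A138V + BP100-Luc; 1000 cells/well, Opti-MEM/10% FBS; cpd 4 pt, 1:5; 24 h, 37 deg C, 5% CO2; detection reagent 10 min RT; luminescence.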
Numbers stand for hits; i = inactive; ? = inconclusive; nt = no result given. Most compounds without a hit are left out; they make up all but 0.62% or so of the library. Unless noted, calls follow the shape of the full dose curve.

Sequences of proteins named here, by UniProt entry; tags and fusion partners are left off.
Importin subunit beta-1 (Homo sapiens), Q14974, UniProt Q14974, whole entry, looked up: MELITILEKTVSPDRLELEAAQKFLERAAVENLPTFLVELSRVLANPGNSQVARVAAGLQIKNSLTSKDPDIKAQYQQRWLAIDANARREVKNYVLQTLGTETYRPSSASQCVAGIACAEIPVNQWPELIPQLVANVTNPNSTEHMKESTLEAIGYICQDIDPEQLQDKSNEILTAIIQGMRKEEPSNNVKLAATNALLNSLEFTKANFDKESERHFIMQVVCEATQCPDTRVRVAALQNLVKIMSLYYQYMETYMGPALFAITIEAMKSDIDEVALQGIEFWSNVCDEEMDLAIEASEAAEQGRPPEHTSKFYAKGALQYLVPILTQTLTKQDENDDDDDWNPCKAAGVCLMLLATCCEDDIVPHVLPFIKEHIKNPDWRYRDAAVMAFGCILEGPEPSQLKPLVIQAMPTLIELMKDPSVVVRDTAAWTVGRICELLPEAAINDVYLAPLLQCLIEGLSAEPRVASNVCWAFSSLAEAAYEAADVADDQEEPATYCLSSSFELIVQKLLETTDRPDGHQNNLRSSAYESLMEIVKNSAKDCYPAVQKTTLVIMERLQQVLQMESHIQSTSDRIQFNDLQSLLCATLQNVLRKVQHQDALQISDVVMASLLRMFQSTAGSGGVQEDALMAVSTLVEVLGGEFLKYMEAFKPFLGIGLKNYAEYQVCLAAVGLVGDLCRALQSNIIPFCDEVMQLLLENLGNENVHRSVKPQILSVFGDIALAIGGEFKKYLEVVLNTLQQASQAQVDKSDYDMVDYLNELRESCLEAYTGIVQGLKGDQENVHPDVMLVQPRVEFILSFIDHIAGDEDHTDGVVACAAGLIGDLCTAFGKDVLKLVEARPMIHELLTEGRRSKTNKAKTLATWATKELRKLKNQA

SMILES | Rango dissoc inh | pAkt inh | Rango complex inh | TSHR antagonist | p53 reactivator
CCCCOC(=O)Nc1ccc(OC)cc1S(=O)(=O)N1CCOCC1 | i | -110% | i | i | i
O=C(Nc1ccc(F)c(Cl)c1)Nn1cnnc1 | nt | nt | nt | i | i
CCOC(=O)N1CCN(c2nc(SC)nc3sc4c(c23)CC(C)(C)OC4)CC1 | i | -86% | ? | i | i
CCN1CCN(c2nc(SC)nc3sc4c(c23)CC(C)(C)OC4)CC1 | i | i | i | i | i
CCc1cccc(C)c1NC(=O)CCCN1C(=O)CN(C)C1=O | i | i | i | i | i
CCN1CCN(C(=S)c2ccc(Cl)cc2)CC1 | i | -115% | i | i | i
CCc1ccc(CCC(=O)Nc2sc(C)c(C)c2C(=O)OC)o1 | i | -91% | i | i | i
Cc1cc(SCc2ccc([N+](=O)[O-])cc2)nc(=O)[nH]1 | i | nt | i | -138 | i
Oc1[nH]c2ccccc2c1N=Nc1ccccc1 | ? | i | ? | i | 28µM
O=C(OCc1cccc(F)c1)c1cc2ccccc2cc1O | i | i | i | i | nt
CN(Cc1ccco1)c1ncnc2ccc(-c3cccc(Cl)c3)cc12 | nt | nt | nt | i | nt
O=C(NC(C(=O)N/N=C/c1ccccn1)c1n[nH]c(=O)c2ccccc12)c1ccccc1 (configuration not stated) | i | i | i | i | i
COC(=O)CCC(=O)OC1(C)C(=O)C2=CN(c3ccc(OC)cc3)C(c3ccc(OC)cc3)=CC2=C(Br)C1=O (configuration not stated) | ? | i | ? | nt | nt
COC(=O)CCC(=O)OC1(C)C(=O)C2=CN(C3CCCC3)C(c3ccc(OC)cc3)=CC2=C(Br)C1=O (configuration not stated) | 9.2µM | i | ? | i | i
O=[N+]([O-])c1ccc(-c2nc(-c3cccs3)c(-c3cccs3)[nH]2)cc1 | i | i | 9.2µM | i | i
O=[N+]([O-])c1cccc(-c2nc(-c3cccs3)c(-c3cccs3)[nH]2)c1 | i | i | i | i | i
Cc1cc(=O)[nH]c(-n2nc(C)c(Oc3ccccc3O)c2C)n1 | i | -110% | i | i | i
CC(C)(C)C(=O)NC(=S)NNC(=O)c1sc2ccccc2c1Cl | i | i | i | -94 | ?
O=C(NNC(=O)c1ccc([N+](=O)[O-])cc1Cl)c1ccncc1 | i | i | i | i | i
CCOC(=O)c1ccc(NC(=O)CSc2nc(C)cc(=O)[nH]2)cc1 | i | i | ? | i | i
COC(=O)c1cc(NC(=O)CSc2nc(C)cc(=O)[nH]2)cc(C(=O)OC)c1 | i | -106% | i | i | i
Cc1nn(-c2ccc(N3CCOCC3)nn2)c(C)c1CCC(=O)NCc1ccccc1 | i | i | i | i | i
Cc1nn(-c2ccc(N3CCOCC3)nn2)c(C)c1CCC(=O)NCc1ccccc1F | i | i | i | -105 | i
CCN(CC)CC(O)Cn1c(-c2cccc(Cl)c2)nc2cc(C)c(C)cc21 (configuration not stated) | i | i | i | i | i
CCCCCC1CC1C(=O)N/N=C/c1ccc(N(C)C)cc1 (configuration not stated) | 8.2µM | i | ? | i | i
SMILES | Rango dissoc inh | pAkt inh | Rango complex inh | TSHR antagonist | p53 reactivator
CN(C)c1ccc(/C=N/NC(=O)COc2ccccc2)cc1 | i | i | i | i | i
O=C1/C(=C\c2cc([N+](=O)[O-])ccc2O)SC(=S)N1Cc1ccc(Cl)cc1 | ? | i | i | -83 | i
COc1ccc(NC(=S)N(C(C)C)C2CCN(C(C)C)CC2)cc1Cl | nt | nt | nt | -81 | i
O=C(Nc1ccccc1N1CCOCC1)c1ccc(S(=O)(=O)NCc2ccco2)cc1 | i | i | i | -77 | i
Cc1ccccc1NC(=O)CSc1nc2c(c(=O)n(C)c(=O)n2C)n1C | i | i | i | i | i
CCOc1ccccc1N1CC(C(=O)Nc2ccc(C(=O)O)cc2)CC1=O (configuration not stated) | i | -112% | i | i | i
